Yeast mating assay 2: variants of the scFv Ab-95

Binding partner: SARS-CoV-2 spike HR2 peptide, sequence PDVDLGDISGINAS.

Parent scFv Ab-95: VH joined to VL by a (GGGGS)3 linker. Changes lie in the light chain CDRs alone.
VH: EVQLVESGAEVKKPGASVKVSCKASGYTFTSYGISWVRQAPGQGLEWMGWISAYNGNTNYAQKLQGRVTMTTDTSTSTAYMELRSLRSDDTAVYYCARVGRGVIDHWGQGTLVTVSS
VL: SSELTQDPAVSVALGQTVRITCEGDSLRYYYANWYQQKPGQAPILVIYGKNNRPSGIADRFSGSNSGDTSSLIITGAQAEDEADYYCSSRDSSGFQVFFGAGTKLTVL

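Phage display of a naive human antibody library on the peptide gave the parent. In library AAYL52, one, two or three CDR residues were substituted; doubles and triples were drawn at random. AlphaSeq pools MATa yeast showing the antibodies with MATalpha yeast showing the peptide. Pairs that bind mate more often; barcode pairs of the diploids are counted by sequencing. The ratio of observed to expected reads was calibrated, replicate by replicate, on BCL2-family standards whose Kd was known from biolayer interferometry. The assay was run in three technical replicates.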

Positions count from residue 1 of the parent VL; S55H puts H in place of S.
This list gathers variants with a substitution at S55 (VL, numbered from residue 1).
Affinities are written as log10 Kd with Kd in nM; a lower number is a better binder.
"nd" means that the variant was in the library but no mating with the target was seen in that replicate; the authors take this as a sign of poor binding, and no number exists.

Variant S55H S89A G94D showed nd, 3.26, nd. Variant D25I S55Q S88T gave 2.28, 2.16, 2.05. For R28F N52Y S55K, the assay gave 3.05, 4.24, 3.21. With D25I N33G S55G the result was 4.55, 3.07, 3.58. Variant Y31S S55K D91A showed 1.18, 1.32, 0.33. Variant R53H S55W S92T gave 3.23, 3.24, nd. With R28K N51W S55L the result was 3.53, 3.47, 3.25. For S55C S92D F98S, the assay gave 4.25, 4.25, nd.

For N52V S55I S92R, the assay gave 2.30, 2.47, 2.16. For R53Q S55N Q96T, the assay gave nd, nd, 3.86. For P54A S55T V97S, the assay gave 2.12, 2.07, 2.54. For N33K S55V S88T, the assay gave nd, nd, nd. Variant S55C S88N S89F showed 3.99, nd, nd. With Y30W Y31H S55R the result was 2.90, 2.39, 3.05. With S55R S93D F98D the result was 2.66, 3.91, nd. Variant R53I S55Q gave nd, 2.70, 2.09.

Variant S26H S55F F98R gave 3.56, 3.51, 3.19. Variant S55H V97E gave 2.62, 2.80, 2.75. Variant Y31F A32I S55T gave nd, nd, nd. With D25K S55R S88Y the result was 3.42, 3.66, 4.28. For A32E S55C, the assay gave 3.40, nd, nd. Variant Y31K G49V S55R gave nd, nd, nd. For G24T G49D S55H, the assay gave nd, 5.87, nd. For S55K D91P S93I, the assay gave nd, nd, nd.

For S55D S89E V97M, the assay gave nd, nd, nd. With S55F S92V G94L the result was nd, nd, nd. For A32T N33R S55Y, the assay gave 3.68, 4.28, 4.16. With S55V S88H the result was nd, nd, nd. For L27G S55R S93L, the assay gave nd, 3.55, nd. For S55M F95G F98W, the assay gave 3.03, 2.36, 2.92. With Y30C G49N S55T the result was 2.75, 2.81, 2.35. For L27T G49K S55R, the assay gave nd, 4.33, nd.

Variant Y31M N33C S55C gave 5.59, 3.52, nd. Variant E23Y P54G S55Q gave 2.44, 2.33, 1.58. Variant R28W S55V G94N gave nd, 4.35, 4.03. Variant G24K N33C S55F gave 5.92, nd, 4.40. Variant N52Q R53Q S55Y gave 2.71, 3.01, 2.45. Variant Y31W G49H S55F gave nd, nd, 3.21. With S26M S55P R90N the result was 3.00, 3.52, 3.81. Variant L27R Y30I S55M gave 3.27, 5.54, 3.22.

Variant S55P F95S showed 3.01, 3.26, 2.41. For N51P S55R G94S, the assay gave 4.08, 5.56, nd. Variant G49F S55H F95H gave 3.59, nd, nd. For R53L S55A, the assay gave 2.83, 3.12, 1.81. For L27M S55R S92Q, the assay gave 2.63, 2.17, 2.60. For S55A G94Y F98N, the assay gave 3.02, 2.64, 3.06. Variant E23A S55Y D91K showed 4.27, nd, 4.18. For S55F D91R S92I, the assay gave 4.49, nd, nd.

With N51A S55Y R90S the result was 3.04, 3.79, 2.88. Variant G24V R53S S55I showed 4.35, nd, nd.

Again, the first 3 entries without any signal:

| changes | log10 Kd (nM) by replicate |
|---|---|
| N33K S55V S88T | nd, nd, nd |
| Y31F A32I S55T | nd, nd, nd |
| Y31K G49V S55R | nd, nd, nd |

In this assay the parent's reference entry averaged 2.31; its copy inside this library read 2.25.
Nonspecific signal, from three strains lacking the peptide, appeared in 28% of pairings of library AAYL52, centred on 3.91 (5% of these signals below 2.90); values are not corrected for it.

The measurements come from Engelhart et al. 2022 (doi:10.1038/s41597-022-01779-4) through the FLAb antibody collection.